Test results: PubChem BioAssay AID720543 (The Scripps Research Institute Molecular Screening Center, 2013)
The entries are a selection whose mix differs from that of the whole data set. Activity calls are given as the source filed them.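 Rule for the calls: active = inhibition exceeding the mean over every tested compound plus 3 SD (cut at about 30% in these data); inactive = the rest.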

Amino acid sequences for entries named in this document (tags omitted). A change or cut given only in a name is not applied to a line headed by its entry.
UniProt Q8VD66: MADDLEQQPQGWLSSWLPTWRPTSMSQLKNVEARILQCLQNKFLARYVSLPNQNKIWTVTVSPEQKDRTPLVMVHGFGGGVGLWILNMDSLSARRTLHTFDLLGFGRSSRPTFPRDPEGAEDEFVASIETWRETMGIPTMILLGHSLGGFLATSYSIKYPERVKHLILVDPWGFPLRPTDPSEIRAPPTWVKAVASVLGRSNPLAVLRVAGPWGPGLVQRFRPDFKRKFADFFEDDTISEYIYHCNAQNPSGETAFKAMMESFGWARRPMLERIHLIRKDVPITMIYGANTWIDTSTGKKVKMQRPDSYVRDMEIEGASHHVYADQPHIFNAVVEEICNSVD

Biological target: (Lyso)-N-acylphosphatidylethanolamine lipase (Mus musculus) (UniProt Q8VD66)
Assay: ABHD4 inhibitors, primary screen, biochemical, fluorescence polarization, mouse (AID 720543);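 note: 0% = plate median of compound wells and 100% = S159A mutant with DMSO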
Conditions: purified mABHD4, FP-Rh probe fluorescence polarization; at 8.92 µM; active compounds read high
Procedure, shortened: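 Doses – 8.92 µM, single dose · Material – wild-type mouse ABHD4 protein · Replication – single well per compound (singlicate) · Measure – percent inhibition of probe binding, normalized to plate controls · Schedule – 45 min compound pre-incubation plus 60 min probe step, 25 °C · Detection – fluorescence polarization with parallel and perpendicular emission, 525/598 nm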

| Compound | inhibition |
| --- | --- |
| Cc1ccc(OCC(=O)OC2CN3CCC2CC3)cc1 (stereo unspecified) | inactive: 4.47% |
| NS(=O)(=O)c1cccc(NC(=O)COC(=O)C(O)(c2ccccc2)c2ccccc2)c1 | inactive: -1.43% |
| O=P1(Nc2ccc(Br)cn2)COc2ccccc2OC1 | inactive: 3.04% |
| Nc1cccc([As](=O)(O)c2ccccc2)c1 | inactive: 2.44% |
| O=P1(Nc2ncccn2)COc2ccccc2OC1 | inactive: 3.5% |
| Cc1ccc(S(=O)(=O)N(CCCN)CCCc2c(C)nc(N)[nH]c2=O)cc1 | inactive: -5.89% |
| CC(C)(C)C(=O)NC(Sc1ncccn1)C(Cl)(Cl)Cl (stereo unspecified) | inactive: -0.36% |
| Clc1n[nH]nc1-c1nn[nH][15n]1 | inactive: 4.64% |
| O=P1(N(CCCl)CCCl)NCCC(C(F)(F)F)O1 (stereo unspecified) | inactive: 2.4% |
| CCOP(=O)(Nc1ccc(C)cn1)OCC | inactive: 1.42% |
| CN(CCCl)Cc1cc(Cl)c(NC2=NCCN2)c(Cl)c1 | inactive: 0.96% |
| CCOP(=O)(NC(=NC(C)c1ccccc1)NC(C)c1ccccc1)OCC (stereo unspecified) | inactive: -2.39% |
| CCC1=CC2Cc3nc4ccc(Cl)cc4c(N)c3C(C1)C2 (stereo unspecified) | inactive: 8.48% |
| O=P1(Nc2ccccn2)COc2ccccc2OC1 | inactive: 0.51% |
| CC1(CBr)Cn2c(nc3ccccc3c2=O)S1 (stereo unspecified) | inactive: 5.36% |
| CN(C(=O)Cc1ccc(Cl)c(Cl)c1)C1CCCC[C@@H]1N1CCCC1 (stereo partly specified) | inactive: -1.41% |
| CN(C(=O)Cc1ccc(Cl)c(Cl)c1)[C@@H]1CCCC[C@H]1N1CCCC1 | inactive: 0.16% |
| CC(C)/C=N\N=C(\N)N[N+](=O)[O-] | inactive: 1.2% |
| COc1ccccc1CNC(=O)COC(=O)C(O)(c1ccccc1)c1ccccc1 | inactive: -2.69% |
| Cc1cccc(OCC(=O)OC2CN3CCC2CC3)c1 (stereo unspecified) | inactive: 0.22% |
| O=[As](O)(c1cccc(O)c1)c1cccc(O)c1 | inactive: -2.7% |

| Compound | inhibition |
| --- | --- |
| CS(=O)(=O)c1ccc(Cl)c(NC(=O)COC(=O)C(O)(c2ccccc2)c2ccccc2)c1 | inactive: -8.29% |
| O=[As](O)(O)c1cccnc1 | inactive: 6.78% |
| COc1cc(C(=O)NCC2(N3CCOCC3)CCCCC2)cc(Cl)c1OC(C)C | inactive: -8.88% |
| O=C(OC1CN2CCC1CC2)c1ccc(Cl)cc1 (stereo unspecified) | inactive: -16.2% |
| CCOP(=O)(Nc1cccc2ccccc12)OCC | inactive: -1.7% |
| COc1cc(C2NCCC3(OCCO3)C2(C)C)cc(OC)c1OC (stereo unspecified) | inactive: -1% |
| CCCOP(=S)(Nc1nc(N)cc(=O)[nH]1)OCCC | inactive: 2.06% |
| Nc1cccc2c([As](=O)(O)O)cccc12 | active: 44.2% |
| Cc1ccc(NCCc2c([N+](=O)[O-])cc([N+](=O)[O-])cc2[N+](=O)[O-])cc1 | active: 44.1% |
| O=C(O)COc1ccc([As](=O)(O)O)cc1[N+](=O)[O-] | inactive: 2.51% |
| Nc1ccccc1[As](=O)(O)c1ccccc1 | inactive: 3.66% |
| O=P(Nc1nccs1)(Oc1ccccc1)Oc1ccccc1 | inactive: -2.2% |
| CCOP1(=S)c2c(C)nn(CCC#N)c2N=C(c2ccccc2F)N1C (stereo unspecified) | inactive: 0.29% |
| CN(C(=O)Cc1ccc(Cl)c(Cl)c1)[C@H]1CC[C@@]2(CCCO2)C[C@@H]1N1CCCC1 | inactive: 0.78% |
| O=[N+]([O-])c1ccc2c(c1)nnn2O | inactive: 0.91% |
| CN(C)C(=O)c1cc([N+](=O)[O-])cc2c1-c1c(cc([N+](=O)[O-])cc1[N+](=O)[O-])C2=O | inactive: 1.3% |
| CN(C(=O)Cc1ccccc1)[C@@H]1CC[C@]2(CCCO2)C[C@H]1N1CCCC1 | inactive: -3.66% |
| CCOP1(=S)c2c(C)nn(CCC#N)c2N=C(c2ccc(F)cc2)N1C (stereo unspecified) | inactive: -0.42% |
| N#CCCN(C(=O)COC(=O)C(O)(c1ccccc1)c1ccccc1)c1ccc(F)cc1 | inactive: 5.33% |
| NC(=O)Nc1ccc([As](=O)(O)O)cc1 | inactive: 8.54% |
| Cc1ccc2nc3c(c(C)c2c1)CC(C(Cl)Cl)S3 (stereo unspecified) | inactive: 1.19% |

| Compound | inhibition |
| --- | --- |
| Cc1ccc(OP(=O)(Nc2ccc([N+](=O)[O-])cn2)Oc2ccc(C)cc2)cc1 | inactive: 2.97% |
| [N-]=[N+]=NC1CCCCC1NC(=O)c1cc([N+](=O)[O-])cc([N+](=O)[O-])c1 (stereo unspecified) | inactive: -3.08% |
| O=[N+]([O-])c1ccc(-c2cc([N+](=O)[O-])c(O)c([N+](=O)[O-])c2)cc1 | inactive: -34.2% |
| COc1cc(C(=O)NCC2(N3CCOCC3)CCCCC2)ccc1OCC(C)C | inactive: -3.38% |
| O=[As](O)(c1ccc(O)cc1)c1ccccc1O | inactive: 3.53% |
| C[As](=O)(O)c1cccc(C(=O)O)c1 | inactive: -3.18% |
| CC(C)NC(=O)NP(=O)(Oc1ccccc1)Oc1ccccc1 | inactive: -1.85% |
| O=C(OC1CN2CCC1CC2)c1cccc2[nH]cnc12 (stereo unspecified) | inactive: -9.89% |
| CCN(CC)C(=S)SC(NC=O)C(Cl)(Cl)Cl (stereo unspecified) | inactive: 2.22% |
| COC(=O)C1(C)COP(=O)(N2CCCCCC2)OC1 (stereo unspecified) | inactive: -1.68% |
| CC(C)c1ccc(OP(=O)(Nc2ccccn2)Oc2ccccc2F)cc1 (stereo unspecified) | inactive: 2.42% |
| ClCCSc1nnc(-c2cccnc2)o1 | inactive: 1.71% |
| COc1cc(I)ccc1[As](=O)(O)O | inactive: -1.38% |
| COc1ccc2nc(NP(=O)(c3ccccc3)c3ccccc3)sc2c1 | inactive: -1.53% |
| O=P1(N(CCCl)CCCl)OCCCN1CCCl (stereo unspecified) | inactive: 3.02% |
| O=P1(N(CCCl)CCCl)Nc2ccccc2N1 | inactive: 7.04% |
| Cc1cc(=O)[nH]c(N[N+](=O)[O-])n1 | inactive: 2.65% |
| O=C(OC1CN2CCC1CC2)C12CC3CC(CC(C3)C1)C2 (stereo unspecified) | inactive: -6.61% |
| Cc1c2c(nc3ccccc13)SC(C(Cl)Cl)C2 (stereo unspecified) | inactive: -7.93% |
| COc1ccc(N/C(=N/P(=O)(N2CCOCC2)N2CCOCC2)N2CCOCC2)cc1 | inactive: -3.33% |
| O=[N+]([O-])c1cc(Oc2ccc([N+](=O)[O-])cc2C(F)(F)F)cc([N+](=O)[O-])c1 | inactive: -2.01% |

| Compound | inhibition |
| --- | --- |
| O=C(Nc1ccncc1[N+](=O)[O-])c1ccc([N+](=O)[O-])cc1[N+](=O)[O-] | inactive: 6.51% |
| O=C(COc1ccccc1)OC1CN2CCC1CC2 (stereo unspecified) | inactive: 5.56% |
| O=C(O)C(=O)c1ccc(N(CCCl)CCCl)cc1 | inactive: 10.9% |
| COC(=O)C1(C)COP(=O)(N2CCCC2)OC1 (stereo unspecified) | inactive: -3.18% |
| COP1(=S)c2c(C)nn(CCC#N)c2N=C(c2ccc(F)cc2)N1C (stereo unspecified) | inactive: -0.77% |
| CCC(C)N(CC(C)C)C(=S)SC(NC(C)=O)C(Cl)(Cl)Cl (stereo unspecified) | inactive: 1.59% |
| CCOC(=O)c1ccc(NC(=O)C(C)(CCl)SC)cc1 (stereo unspecified) | inactive: 2.16% |
| O=C(OC1CN2CCC1CC2)c1cccc([N+](=O)[O-])c1 (stereo unspecified) | inactive: -0.07% |
| Cc1cc(SC(NC(=O)c2ccccc2)C(Cl)(Cl)Cl)nc(C(C)C)n1 (stereo unspecified) | inactive: -1.02% |
| CCCCOc1ccc(C(=O)NCC2(N3CCCCC3)CCCCC2)cc1OC | inactive: -2.12% |
| COP(=O)(OC)N1CC1c1ccccc1 (stereo unspecified) | inactive: 1.63% |
| CC1CCNP(=O)(N(CCCl)CCCl)O1 (stereo unspecified) | inactive: -12.2% |
| O=C(O)C(O)c1ccc(N(CCCl)CCCl)cc1 (stereo unspecified) | inactive: 0.42% |
| CCOC(=O)Nc1ccc([As](=O)(O)O)c(O)c1 | inactive: 11.1% |
| O=[N+]([O-])c1ccc(Nc2ccc(Oc3ccc([N+](=O)[O-])cc3[N+](=O)[O-])cc2)c([N+](=O)[O-])c1 | inactive: 3.62% |
| Cc1cc(SC(NC=O)C(Cl)(Cl)Cl)ncn1 (stereo unspecified) | inactive: 6.96% |
| O=P(Nc1ccccn1)(c1cccc2ccccc12)c1cccc2ccccc12 | inactive: -3.43% |
| CCOC(=O)Nc1cccc([As](=O)(O)O)c1 | inactive: 5.25% |
